Assay results: PMC3795262 (2013)

Key:
[1] = molecular target: T1, Recombinant human heavy chain 3 (human, UniProt Q06033 35-651); assay: SPR; 10 mM EDTA
T1 chain: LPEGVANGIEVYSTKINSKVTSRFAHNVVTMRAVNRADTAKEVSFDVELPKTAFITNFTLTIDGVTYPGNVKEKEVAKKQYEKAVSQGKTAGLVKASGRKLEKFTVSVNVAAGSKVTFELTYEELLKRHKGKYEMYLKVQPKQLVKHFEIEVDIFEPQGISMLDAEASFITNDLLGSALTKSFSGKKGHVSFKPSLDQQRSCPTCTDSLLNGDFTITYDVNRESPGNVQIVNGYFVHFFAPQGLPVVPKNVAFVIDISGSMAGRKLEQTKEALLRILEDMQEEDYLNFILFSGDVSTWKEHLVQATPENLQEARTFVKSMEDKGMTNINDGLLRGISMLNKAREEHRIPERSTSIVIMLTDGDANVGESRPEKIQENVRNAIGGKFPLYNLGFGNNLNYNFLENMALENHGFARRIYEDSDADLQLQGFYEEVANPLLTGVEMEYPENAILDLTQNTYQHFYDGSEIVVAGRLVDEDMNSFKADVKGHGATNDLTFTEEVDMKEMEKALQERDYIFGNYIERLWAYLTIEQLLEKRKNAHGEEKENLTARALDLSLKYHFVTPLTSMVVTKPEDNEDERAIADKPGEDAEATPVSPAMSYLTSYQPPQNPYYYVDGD

[2] = molecular target: T2, Recombinant human heavy chain 1 of inter-α-inhibitor (human, UniProt P19827 35-672); assay: SPR; 10 mM EDTA
T2 chain: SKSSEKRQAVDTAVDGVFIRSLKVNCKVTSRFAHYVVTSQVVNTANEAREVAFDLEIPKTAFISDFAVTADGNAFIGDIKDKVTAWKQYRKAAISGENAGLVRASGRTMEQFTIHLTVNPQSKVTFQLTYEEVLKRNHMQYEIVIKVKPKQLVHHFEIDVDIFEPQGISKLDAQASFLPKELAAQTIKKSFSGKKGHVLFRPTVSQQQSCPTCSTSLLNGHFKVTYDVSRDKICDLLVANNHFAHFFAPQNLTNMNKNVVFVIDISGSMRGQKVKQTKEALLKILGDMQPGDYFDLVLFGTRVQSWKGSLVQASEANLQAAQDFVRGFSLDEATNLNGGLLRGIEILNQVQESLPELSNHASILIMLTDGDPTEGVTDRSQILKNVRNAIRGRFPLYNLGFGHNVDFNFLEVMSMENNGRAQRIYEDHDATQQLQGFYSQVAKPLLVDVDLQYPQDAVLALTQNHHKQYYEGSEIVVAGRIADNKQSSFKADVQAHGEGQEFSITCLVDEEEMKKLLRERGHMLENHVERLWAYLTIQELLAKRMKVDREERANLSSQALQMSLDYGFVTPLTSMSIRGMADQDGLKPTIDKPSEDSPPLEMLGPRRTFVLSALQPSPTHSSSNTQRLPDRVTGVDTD

[3] = molecular target: T3, Recombinant human heavy chain 2 of inter-α-inhibitor (human, UniProt P19823 55-702); assay: SPR; 10 mM EDTA
T3 chain: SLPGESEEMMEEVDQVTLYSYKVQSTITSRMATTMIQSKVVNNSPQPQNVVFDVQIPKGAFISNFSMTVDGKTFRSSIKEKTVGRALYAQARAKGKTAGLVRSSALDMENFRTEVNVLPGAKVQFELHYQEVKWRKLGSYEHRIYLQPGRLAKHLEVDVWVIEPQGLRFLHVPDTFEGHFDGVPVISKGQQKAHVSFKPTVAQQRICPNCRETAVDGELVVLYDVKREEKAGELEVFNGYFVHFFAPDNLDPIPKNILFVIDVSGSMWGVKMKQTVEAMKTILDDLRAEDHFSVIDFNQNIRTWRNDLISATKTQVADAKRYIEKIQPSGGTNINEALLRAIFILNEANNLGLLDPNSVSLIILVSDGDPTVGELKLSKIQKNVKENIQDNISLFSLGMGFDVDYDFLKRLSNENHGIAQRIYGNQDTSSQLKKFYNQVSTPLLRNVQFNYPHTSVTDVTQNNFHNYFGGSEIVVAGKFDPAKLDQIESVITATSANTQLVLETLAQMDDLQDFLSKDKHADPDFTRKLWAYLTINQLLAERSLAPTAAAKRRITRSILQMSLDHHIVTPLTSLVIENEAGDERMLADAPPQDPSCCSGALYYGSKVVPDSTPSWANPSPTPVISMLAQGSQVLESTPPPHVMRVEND

[4] = molecular target: T1, Recombinant human heavy chain 3; assay: SPR; 1 mM MgCl2 and 1 mM CaCl2
[5] = molecular target: T2, Recombinant human heavy chain 1 of …; assay: SPR; 1 mM MgCl2 and 1 mM CaCl2
[6] = molecular target: T3, Recombinant human heavy chain 2 of …; assay: SPR; 1 mM MgCl2 and 1 mM CaCl2

Kd [1]: 8.3 nM
Kd [2]: 7.4 nM
Kd [3]: 8.9 nM
Kd [4]: 6.5 nM
Kd [5]: 6.3 nM
Kd [6]: 6.5 nM
B1: Full-length recombinant human TSG-6 (secreted product of tumor necrosis factor-stimulated gene-6) (natural protein)
chain: WGFKDGIFHNSIWLERAAGVYHREARSGKYKLTYAEAKAVCEFEGGHLATYKQLEAARKIGFHVCAAGWMAKGRVGYPIVKPGPNCGFGKTGIIDYGIRLNRSERWDAYCYNPHAKECGGVFTDPKQIFKSPGFPNEYEDNQICYWHIRLKYGQRIHLSFLDFDLEDDPGCLADYVEIYDSYDDVHGFVGRYCGDELPDDIISTGNVMTLKFLSDASVTAGGFQIKYVAMDPVSKSSQGKNTSTTSTGNKNFLAGRFSHL
